Target: cardiac troponin I (human (endogenous in heart tissue)) (UniProt P19429)
Assay: affinity purification with mass spectrometry; co-purification of the cTn subunits from human heart extract on the cTnI-binding peptide nanoparticles (NP-Pep); 25 mM Tris pH 7.5, 700 mM LiCl, 4 °C; native elution; subunits in the eluate analysed (Supplementary Fig. 2, 3a) and by top-down RPLC-MS/MS

troponin C (from UniProt P63316 1-161) (natural protein)
stoichiometry N: 1

Source: PMC10728164
